In patent US8518388B2, “Cyclodextrin-based polymers for therapeutics delivery” (dated 2013):
Values joined by “and” are separate entries in the source; they are usually repeats but may differ in a detail not shown here. Equal entries are not always repeated.

Experiments:
[1] = system: human colonic adeoncarcinoma LS174T cell line; experiment: IC50 via MTT assay, LS174T; conditions: read-out: IC50, LS174T; MTT assay after 72 h; CPT equivalent for HGGG6 and HG6
[2] = Lactone stability (lactone ring opening) in PBS
[3] = system: human ovarian carcinoma A2780 cell line; experiment: IC50 via MTT assay, A2780; conditions: read-out: IC50, A2780; MTT assay after 72 h; CPT equivalent for HGGG6 and HG6
[4] = system: human LS174T colon carcinoma; experiment: Antitumor efficacy study, LS174T xenograft
[5] = system: human colorectal adenocarcinoma HT29; experiment: IC50 via MTT assay, HT29; conditions: read-out: IC50, HT29; MTT assay after 72 h; CPT equivalent for HGGG6 and HG6
[6] = Determination of maximum tolerable dose (MTD) for CDP-CPT conjugates
[7] = system: human prostate carcinoma PC-3; experiment: IC50 via MTT assay, PC-3; conditions: read-out: IC50, PC3; MTT assay after 72 h; CPT equivalent for HGGG6 and HG6
[8] = Hydrolysis of CPT-peptide ester bond in aqueous solution; conditions: HPLC with UV detector
[9] = PBS buffer pH 7.4, room temperature, 7 hours
[10] = CPT 9 mg/kg i.p. Q4D × 2 (Group 2)
[11] = 2.25 mg CPT/kg i.v. Days 1, 5, 9
[12] = 4.5 mg CPT/kg i.v. Days 1, 5, 9

Compound: CC[C@@]1(O)C(=O)OCc2c1cc1n(c2=O)Cc2cc3ccccc3nc2-1
- IC50 [1]: 5 nM
- CPT lactone form transformed to its carboxylate form [2, 9]: more than 60%
- IC50 [3]: 7 nM
- % TGD [4, 10]: 47%
- Maximum mean body weight (MBW) loss [4, 10]: 13.1%
- Median TTE (time to endpoint 1500 mg) [4, 10]: 51.4 days
- NEU (number of mice euthanized after reaching endpoint) [4, 10]: 5
- NTR (number of treatment-related death) [4, 10]: 2
- Ns (mice surviving to Day 114) [4, 10]: — (0)
- T-C [4, 10]: 16.5 days
- toxicity judgement at this dose ([4]; CPT 9 mg/kg i.p., two treatment-related deaths on Day 9): toxic
- IC50 [5]: 20 nM

Compound: Poly(CDDCys-PA-PEG)-Gly-CPT
- IC50 [1]: 50 nM
- IC50 [3]: 25 nM
- Day of max % BW loss [6, 11]: 9 days
- Max % BW loss [6, 11]: −2.9%
- NTR/N (treatment-related deaths / mice treated) [6, 11]: 0/5
- Day of max % BW loss [6, 12]: 5 days
- Max % BW loss [6, 12]: −4.4%
- NTR/N (treatment-related deaths / mice treated) [6, 12]: 0/5
- Day of max % BW loss ([6]; 9 mg CPT/kg i.v. Days 1, 5, 9): 9 days
- Max % BW loss ([6]; 9 mg CPT/kg i.v. Days 1, 5, 9): −6.1%
- NTR/N (treatment-related deaths / mice treated) ([6]; 9 mg CPT/kg i.v. Days 1, 5, 9): 0/5
- Day of max % BW loss ([6]; 18 mg CPT/kg i.v. Days 1, 5, 9): 3 days
- Max % BW loss ([6]; 18 mg CPT/kg i.v. Days 1, 5, 9): −22.1%
- NTR/N (treatment-related deaths / mice treated) ([6]; 18 mg CPT/kg i.v. Days 1, 5, 9): 3/3
- Day of max % BW loss ([6]; 36 mg CPT/kg i.v. Days 1, 5, 9): 3 days
- Max % BW loss ([6]; 36 mg CPT/kg i.v. Days 1, 5, 9): −23.9%
- NTR/N (treatment-related deaths / mice treated) ([6]; 36 mg CPT/kg i.v. Days 1, 5, 9): 3/3
- Day of max % BW loss ([6]; 54 mg CPT/kg i.v. Days 1, 5, 9): 3 days
- Max % BW loss ([6]; 54 mg CPT/kg i.v. Days 1, 5, 9): −28.5%
- NTR/N (treatment-related deaths / mice treated) ([6]; 54 mg CPT/kg i.v. Days 1, 5, 9): 3/3
- Maximum tolerable dose (MTD) ([6]; i.v. tail vein injection Days 1, 5, 9, nude mice): 9 mg CPT/kg
- IC50 [7]: 250 nM
- % TGD ([4]; 4.5 mg CPT/kg i.v. Q4D × 3): 113%
- Median TTE (time to endpoint 1500 mg) ([4]; 4.5 mg CPT/kg i.v. Q4D × 3): 74.2 days
- Median Tumor Burden on day 114 ([4]; 4.5 mg CPT/kg i.v. Q4D × 3): 668 mg
- NEU (number of mice euthanized after reaching endpoint) ([4]; 4.5 mg CPT/kg i.v. Q4D × 3): 3
- NTR (number of treatment-related death) ([4]; 4.5 mg CPT/kg i.v. Q4D × 3): 1
- Ns (mice surviving to Day 114) ([4]; 4.5 mg CPT/kg i.v. Q4D × 3): 2
- T-C ([4]; 4.5 mg CPT/kg i.v. Q4D × 3): 39.3 days
- % TGD ([4]; 9 mg CPT/kg i.v. Q4D × 3): 227%
- Median TTE (time to endpoint 1500 mg) ([4]; 9 mg CPT/kg i.v. Q4D × 3): 114 days and 114.0 days
- Median Tumor Burden on day 114 ([4]; 9 mg CPT/kg i.v. Q4D × 3): 394 mg
- NEU (number of mice euthanized after reaching endpoint) ([4]; 9 mg CPT/kg i.v. Q4D × 3): 3
- NTR (number of treatment-related death) ([4]; 9 mg CPT/kg i.v. Q4D × 3): 0
- Ns (mice surviving to Day 114) ([4]; 9 mg CPT/kg i.v. Q4D × 3): 4
- T-C ([4]; 9 mg CPT/kg i.v. Q4D × 3): 79.1 days
- Maximum mean body weight (MBW) loss ([4]; 9 mg CPT/kg i.v. Q4D × 3 (MTD)): 3.4%
- tumor growth inhibition compared to D5W, CPT and irinotecan ([4]; high MW conjugates administered at their MTDs (FIG. 8)): more prolonged tumor growth inhibition
- IC50 [5]: 50 nM

Compound: Gly-CPT
- carboxylate form detected (lactone ring opening) [2, 9]: no carboxylate forms

Compound: CC[C@@]1(OC(=O)[C@H](CCCCNC(=O)OCc2ccccc2)NC(=O)OCc2ccccc2)C(=O)OCc2c1cc1n(c2=O)Cc2cc3ccccc3nc2-1
- transformation of lactone form to carboxylate form ([2]; PBS buffer, compared with free CPT (FIG. 4)): much slower than that of free CPT
- Hydrolysis in aqueous solution [8]: very slow

Compound: GlyGlyGly-CPT
- carboxylate form detected (lactone ring opening) [2, 9]: no carboxylate forms
